Among the data in PubChem BioAssay AID743126 (The Scripps Research Institute Molecular Screening Center, 2013) are inhibition values, retold here.

Amino acid sequences for entries named in this document (tags omitted).
UniProt Q9NZ20, whole entry: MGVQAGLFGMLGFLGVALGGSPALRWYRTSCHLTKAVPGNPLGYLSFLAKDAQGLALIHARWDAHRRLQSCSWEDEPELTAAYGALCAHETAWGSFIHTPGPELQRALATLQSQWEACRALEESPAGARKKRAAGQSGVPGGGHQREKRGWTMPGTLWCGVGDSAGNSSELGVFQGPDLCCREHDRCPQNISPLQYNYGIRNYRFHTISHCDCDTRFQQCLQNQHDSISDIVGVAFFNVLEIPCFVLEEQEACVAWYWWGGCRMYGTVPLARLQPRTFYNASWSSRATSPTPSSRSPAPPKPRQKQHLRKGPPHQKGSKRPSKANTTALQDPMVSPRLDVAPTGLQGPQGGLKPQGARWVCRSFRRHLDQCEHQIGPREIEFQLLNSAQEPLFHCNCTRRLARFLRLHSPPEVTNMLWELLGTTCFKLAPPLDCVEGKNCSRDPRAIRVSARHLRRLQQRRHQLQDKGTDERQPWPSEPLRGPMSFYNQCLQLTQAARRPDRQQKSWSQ

The list shows a part of the results, in another mix than the full data. Some results for these compounds are left out of this collection, so the calls shown say nothing about other tests. The source made the active and inactive calls.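 The calls were made as follows: active = inhibition above mean plus 3 SD of compounds lying within the high and low control bounds (cut at about 19% in these data); inactive = the rest.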

In this experiment the target is Group 3 secretory phospholipase A2 (Homo sapiens) (UniProt Q9NZ20). The experiment can be described thus: HGIII-sPLA2 enzyme inhibition – biochemical, QFRET, BODIPY PC-A2 liposome substrate, primary screen (AID 743126).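 Also: 0% = median of test compound wells and 100% = no enzyme DMSO wells.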 To be noted: QFRET BODIPY PC-A2 liposome hydrolysis, fluorescence; at 12.2 µM; stronger effect = higher value.
`COc1cc(C(=O)NCC2(N(C)C)CCCCC2)c([N+](=O)[O-])cc1OC`: the inhibition (in general, the relative decrease from the control value, in per cent) is inactive: 10.2%.

For `CN(C)C1(CNC(=O)c2ccc(Br)cc2)CCCCC1`, the inhibition was inactive: 5.1%.

Regarding `O=C(NCC1(N2CCCCC2)CCCCC1)c1cccc(Cl)c1`, the inhibition was inactive: 12.7%.

Take `COc1cccc(C(=O)NCC2(N3CCCCC3)CCCCC2)c1`: the inhibition is inactive: -0.77%.

As for `COc1ccc(Cl)cc1C(=O)NCC1(N(C)C)CCCCC1`, the inhibition is inactive: -6.78%.

Turning to `O=C(OC1CN2CCC1CC2)C(CO)(c1ccccc1)c1ccccc1` (stereo unspecified), the inhibition is inactive: -1.07%.

In the case of `CC(C)Oc1ccc(C(=O)NCC2(N(C)C)CCCCC2)cc1`, the inhibition is inactive: 14.1%.

With `O=C(OCCN1CCCC1)C(O)(c1ccccc1)c1ccccc1`, the inhibition is inactive: -1.1%.

For `CN(C)c1cccc(C(=O)NCC2(N(C)C)CCCCC2)c1`, the inhibition is inactive: 4.52%.

For `C=C(C)C#CC(O)(C(=O)OC1CCN(C)CC1)c1ccccc1` (stereo unspecified), the inhibition was inactive: 15.1%.

Take `COc1ccc(Br)c(C(=O)NCC2(N3CCCCC3)CCCCC2)c1`: the inhibition is inactive: 13.4%.

With `CN1[C@@H]2CC[C@H]1CC(OC(=O)C(O)(c1ccccc1)c1ccccc1)C2` (stereo partly specified), the inhibition was inactive: -9.96%.

For `O=C(NCC1(N2CCCCC2)CCCCC1)c1cc([N+](=O)[O-])ccc1Cl`, the inhibition is inactive: 3.99%.

Consider `Cc1ccc(C(=O)NCC2(N3CCCCC3)CCCCC2)cc1`, for which the inhibition is inactive: 0.18%.

For `CCN(CC)CC(C)C(C)OC(=O)C(O)(c1ccccc1)c1ccccc1` (stereo unspecified), the inhibition was inactive: 0.56%.

Turning to `COc1cc(SC)ccc1C(=O)NCC1(N(C)C)CCCCC1`, the inhibition was inactive: 4.05%.

For the compound `CC(C)N1C(=O)CC2(CCN(CCOC(=O)C(O)(c3ccccc3)c3ccccc3)CC2)C1=O`, the inhibition was inactive: 4.52%.

As for `Cc1ccccc1C(=O)NCC1(N2CCCCC2)CCCCC1`, the inhibition was inactive: 3.61%.

As to `CN(C)c1ccc(C(=O)NCC2(N(C)C)CCCCC2)cc1`, the inhibition was inactive: 2.9%.

In the case of `CN(C)C1CCCC1OC(=O)C(O)(c1ccccc1)c1ccccc1` (stereo unspecified), the inhibition is inactive: 6.3%.

On to `COc1ccc(C(=O)NCC2(N(C)C)CCCCC2)cc1`, for which the inhibition is inactive: 2.4%.

For `CCN1CCCC(OC(=O)C2(O)c3ccccc3C=Cc3ccccc32)C1` (stereo unspecified), the inhibition is inactive: 5.09%.

As for `Cc1cc(C(=O)NCC2(N3CCCCC3)CCCCC2)ccc1[N+](=O)[O-]`, the inhibition is inactive: 0.42%.

As to `O=C(NCC1(N2CCCCC2)CCCCC1)c1cccc(Br)c1`, the inhibition is inactive: 6.55%.

As to `C=CCN1CCN(CCOC(=O)C(O)(c2ccccc2)c2ccccc2)CC1`, the inhibition was inactive: -5.84%.

For the compound `O=C(NCC1(N2CCCCC2)CCCCC1)c1cc(F)c(F)cc1Cl`, the inhibition is inactive: 4.85%.
